This is a selection: effects in other tests are not listed, and their absence says nothing.
Experiment: Solubility of buprenorphine derivatives and salt forms in dissolution medium
Details: 55° C. water bath, 60 rpm

| Substance | Solubility (salt forms, Table 4) | Solubility (Table 3) |
| --- | --- | --- |
| Buprenorphine acetate-maleic acid salt | 1481 µg/mL | – |
| Buprenorphine acetate-pantoic acid salt | 1546 µg/mL | – |
| Buprenorphine dodecanoate | – | 269 µg/mL |
| Buprenorphine hexanoate | – | 670 µg/mL |
| Buprenorphine pentanoate | – | 498 µg/mL |
| Buprenorphine pivalate | – | 160 µg/mL |
| Buprenorphine stearate | – | 20 µg/mL |
| Buprenorphine stearate-L-tartaric acid salt | 3504 µg/mL | – |
